Test results published in patent US20210393621A1, “COMBINATION SEROTONIN SPECIFIC REUPTAKE INHIBITOR AND SEROTONIN 1A RECEPTOR PARTIAL AGONIST FOR REDUCING L-DOPA-INDUCED DYSKINESIA” (The Research Foundation for The State University of new York, priority 2018, published 2021).

Columns and labels:
DRN 5-HT neurons = experiment: Example 3: in vivo single-unit recordings of DRN 5-HT neurons; parameters: species or system rats; conditions: rat, iv
[1] = system: unilateral 6-OHDA-lesioned rats; experiment: Example 2: stepping test; type: in vivo, Sprague-Dawley rats; conditions: vilazodone 10 mg/kg or escitalopram 12.5 mg/kg + L-DOPA 5 mg/kg; 60 minutes post L-DOPA

SMILES | firing of 5-HT cells in AAV-D2Rs injected rats (DRN 5-HT neurons) | forelimb akinesia and L-DOPA prokinetic / therapeutic efficacy (stepping test) [1]
CCCN1CCC[C@@H]2Cc3n[nH]cc3C[C@H]21 [quinpirole] | exhibited clear inhibitory effects | –
Cl.N#Cc1ccc2[nH]cc(CCCCN3CCN(c4ccc5oc(C(N)=O)cc5c4)CC3)c2c1 [Vilazodone, 5-{4-[4-(5-cyano-3-indolyl)-butyl]-1-piperazinyl}-benzofuran-2-carboxamide hydrochloride] | – | had no effects on forelimb akinesia or L-DOPA-induced prokinetic effects
